The values that follow come from ChEMBL document CHEMBL1123262, “Nonquaternary cholinesterase reactivators. 3. 3(5)-Substituted 1,2,4-oxadiazol-5(3)-aldoximes and 1,2,4-oxadiazole-5(3)-thiocarbohydroximates as reactivators of organophosphonate-inhibited eel and human acetylcholinesterase in vitro” (1986).

By UniProt entry, the sequences of proteins in these tests, tags left out. Where a name states a change or a piece, a line headed by the entry shows the natural chain unless it says otherwise.
UniProt O42275: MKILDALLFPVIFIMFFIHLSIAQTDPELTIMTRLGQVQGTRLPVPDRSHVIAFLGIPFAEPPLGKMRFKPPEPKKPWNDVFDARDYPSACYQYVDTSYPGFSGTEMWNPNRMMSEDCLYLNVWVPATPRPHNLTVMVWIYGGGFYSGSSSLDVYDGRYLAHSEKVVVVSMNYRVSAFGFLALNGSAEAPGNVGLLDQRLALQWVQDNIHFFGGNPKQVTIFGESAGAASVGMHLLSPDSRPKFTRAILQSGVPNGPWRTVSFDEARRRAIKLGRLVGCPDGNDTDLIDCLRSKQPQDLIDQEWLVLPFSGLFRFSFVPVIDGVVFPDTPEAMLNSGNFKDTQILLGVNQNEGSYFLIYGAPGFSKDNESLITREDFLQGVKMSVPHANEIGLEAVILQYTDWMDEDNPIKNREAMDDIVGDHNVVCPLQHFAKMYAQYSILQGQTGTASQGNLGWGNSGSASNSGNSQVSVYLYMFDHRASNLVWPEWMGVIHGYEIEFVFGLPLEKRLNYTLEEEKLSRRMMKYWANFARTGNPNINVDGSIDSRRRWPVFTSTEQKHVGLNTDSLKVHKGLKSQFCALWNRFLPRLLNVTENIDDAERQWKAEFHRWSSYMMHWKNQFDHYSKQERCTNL
UniProt P22303: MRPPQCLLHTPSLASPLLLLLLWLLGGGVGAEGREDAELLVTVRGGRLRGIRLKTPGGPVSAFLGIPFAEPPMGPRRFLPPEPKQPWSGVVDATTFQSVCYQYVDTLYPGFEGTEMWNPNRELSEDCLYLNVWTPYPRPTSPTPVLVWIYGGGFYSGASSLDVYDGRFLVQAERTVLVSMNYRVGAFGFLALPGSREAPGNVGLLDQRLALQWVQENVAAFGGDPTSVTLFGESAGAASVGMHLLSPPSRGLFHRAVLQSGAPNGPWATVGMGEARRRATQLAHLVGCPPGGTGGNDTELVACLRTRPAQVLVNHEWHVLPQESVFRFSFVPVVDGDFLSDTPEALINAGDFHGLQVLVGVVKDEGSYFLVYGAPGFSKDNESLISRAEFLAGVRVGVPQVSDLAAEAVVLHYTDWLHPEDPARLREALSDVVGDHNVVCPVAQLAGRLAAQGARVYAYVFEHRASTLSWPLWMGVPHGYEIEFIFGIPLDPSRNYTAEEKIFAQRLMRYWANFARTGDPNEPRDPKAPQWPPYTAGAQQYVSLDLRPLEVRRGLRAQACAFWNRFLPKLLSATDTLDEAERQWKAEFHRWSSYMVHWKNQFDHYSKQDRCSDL

Assay [1] addresses Acetylcholinesterase (Electrophorus electricus) (UniProt O42275). The assay can be described thus: In vitro rate of EPMP-inhibited acetylcholinesterase reactivation by anionic (oximate) form.
Assay [2] deals with Acetylcholinesterase (Homo sapiens) (UniProt P22303). Put plainly: In vitro rate of EPMP-inhibited acetylcholinesterase reactivation, by the protonated (oxime) form.
Assay [3] deals with Acetylcholinesterase (Electrophorus electricus) (UniProt O42275). The description is as above.
Assay [4] deals with Acetylcholinesterase (Homo sapiens) (UniProt P22303). The assay can be described thus: In vitro rate of EPMP-inhibited acetylcholinesterase reactivation, by anionic (oximate) form.
Assay [5] addresses Acetylcholinesterase (Electrophorus electricus) (UniProt O42275). The assay can be described thus: AChE activity of compound on incubation interval (33 min) at 10 uM; 100*Observed activity/Corrected activity i.e. (100 At/Ac).
For assay [6] the target is unchanged. Put plainly: AChE activity of compound on incubation interval (25 min) at 100 uM; 100*Observed activity/Corrected activity i.e. (100 At/Ac).
Assay [7] shares this target. Put plainly: AChE activity of compound on incubation interval (25 min) at 30 uM; 100*Observed activity/Corrected activity i.e. (100 At/Ac).
Assay [8] has the same target. Put plainly: AChE activity of compound on incubation interval (33 min) at 3 uM; 100*Observed activity/Corrected activity i.e. (100 At/Ac).

Values joined by “and” are separate entries in the source; they are usually repeats but may differ in a detail not shown here. Equal values may be shown once.

Consider `O/N=C/c1nc(-c2cccs2)no1`, for which the KOX in assay [1] was determined as 25.8 M⁻¹ s⁻¹; in assay [4], 1.73 M⁻¹ s⁻¹. Also, the kHOX in assay [2] is 0.47 M⁻¹ s⁻¹; in assay [3], 5.45 M⁻¹ s⁻¹.
The corresponding values for `O/N=C/c1nc(-c2cccc3ccccc23)no1` are 37.3 M⁻¹ s⁻¹, 6.5 M⁻¹ s⁻¹, 1.7 M⁻¹ s⁻¹ and 9.78 M⁻¹ s⁻¹.
In assay [3], `CCCCCCCCc1noc(/C(=N/O)SCCN(CC)CC)n1` had a kHOX of 1.07 M⁻¹ s⁻¹.
`CCCCCCCCc1noc(/C=N/O)n1`: the KOX in assay [1] was found to be 36.2 M⁻¹ s⁻¹; in assay [4], 12.7 M⁻¹ s⁻¹. The kHOX was found to be 2.45 M⁻¹ s⁻¹ in assay [2] and 6.98 M⁻¹ s⁻¹ in assay [3].
For `O/N=C/c1nc(-c2ccncc2)no1`, the kHOX in assay [2] is 1.7 M⁻¹ s⁻¹. In assay [4], this compound displayed a KOX of 5.97 M⁻¹ s⁻¹.
Regarding `CCN(CC)CCS/C(=N\O)c1nc(C)no1`, the values for the KOX in assay [1] and in assay [4] were 0.0517 M⁻¹ s⁻¹ and 0.025 M⁻¹ s⁻¹, respectively. For the same compound, the kHOX in assay [2] amounted to 0.0233 M⁻¹ s⁻¹; in assay [3] it was 0.0483 M⁻¹ s⁻¹.
As for `CCN(CC)CCS/C(=N\O)c1nc(C(C)(C)C)no1`, the KOX in assay [1] was found to be 0.0157 M⁻¹ s⁻¹. In addition, the kHOX in assay [3] was determined as 0.0142 M⁻¹ s⁻¹.
On to `C[n+]1ccccc1C=NO`, for which the KOX in assay [1] amounted to 254 M⁻¹ s⁻¹; in assay [4], 31.3 M⁻¹ s⁻¹. For the same compound, the results for the kHOX in assay [2] and in assay [3] were 9.05 M⁻¹ s⁻¹ and 73.6 M⁻¹ s⁻¹, respectively.
For `C[n+]1c(/C=N/O)cccc1CCO[n+]1ccc(C(N)=O)cc1`, in that order: 6.87 M⁻¹ s⁻¹, 84 M⁻¹ s⁻¹, 57.2 M⁻¹ s⁻¹ and 4.68 M⁻¹ s⁻¹.
As for `CCN(CC)CCS/C(=N\O)c1nc(-c2ccccc2)no1`, the Relative activity of AChE came to 79 in assay [5], 102 in assay [6], 91 in assay [7] and 46 in assay [8]. Moreover, the KOX was 0.612 M⁻¹ s⁻¹ and 0.365 M⁻¹ s⁻¹ in assay [1]; 0.232 M⁻¹ s⁻¹ and 0.553 M⁻¹ s⁻¹ in assay [4]. The kHOX in assay [3] was 0.388 M⁻¹ s⁻¹ and 0.347 M⁻¹ s⁻¹.
Regarding `O/N=C/c1nc(Cc2ccccc2)no1`, the KOX stood at 6.13 M⁻¹ s⁻¹ in assay [1] and 2.63 M⁻¹ s⁻¹ in assay [4]. Also, the kHOX in assay [2] was found to be 0.827 M⁻¹ s⁻¹; in assay [3], 1.93 M⁻¹ s⁻¹.
Regarding `Cc1noc(/C=N/O)n1`, the KOX is 9.03 M⁻¹ s⁻¹ in assay [1] and 0.79 M⁻¹ s⁻¹ in assay [4]. The kHOX in assay [2] is 0.187 M⁻¹ s⁻¹; in assay [3], 2.17 M⁻¹ s⁻¹.
In turn, `CCN(CC)CC/N=C(\NO)c1nc(-c2ccccc2)no1` displayed a KOX in assay [1] of 5.45 M⁻¹ s⁻¹. This compound also returned a kHOX in assay [3] of 0.323 M⁻¹ s⁻¹.
`CCN(CC)CCS/C(=N\O)c1nc(-c2cccc3ccccc23)no1` displayed a KOX in assay [1] of 0.687 M⁻¹ s⁻¹. The kHOX in assay [3] turned out to be 0.637 M⁻¹ s⁻¹.
On to `CC(C)(C)c1noc(/C=N/O)n1`, for which the KOX in assay [1] turned out to be 1.12 M⁻¹ s⁻¹; in assay [4], 0.39 M⁻¹ s⁻¹. Further, the kHOX was 0.527 M⁻¹ s⁻¹ in assay [2] and 0.368 M⁻¹ s⁻¹ in assay [3].
For `CCN(CC)CCS/C(=N\O)c1nc(Cc2ccccc2)no1`, in that order: 0.025 M⁻¹ s⁻¹, 0.025 M⁻¹ s⁻¹, 0.0233 M⁻¹ s⁻¹ and 0.0233 M⁻¹ s⁻¹.
For `Cc1noc(/C=N\O)n1`, in that order: 2.57 M⁻¹ s⁻¹, 0.4 M⁻¹ s⁻¹, 0.04 M⁻¹ s⁻¹ and 0.233 M⁻¹ s⁻¹.
